Molecular target: T1, FAAH (Mus musculus, UniProt O08914)
T1 construct: with FP-Rh in brain and heart membrane proteome; from tissue; host or cells: brain and heart membrane proteome
Assay: Activity based protein profiling (proteome-wide selectivity screening, FP-Rh), FAAH
Type: biochemical
Settings: Table 4

Protein sequences, listed by entry. Tags and fused reporters are not part of them.
UniProt O08914, whole entry: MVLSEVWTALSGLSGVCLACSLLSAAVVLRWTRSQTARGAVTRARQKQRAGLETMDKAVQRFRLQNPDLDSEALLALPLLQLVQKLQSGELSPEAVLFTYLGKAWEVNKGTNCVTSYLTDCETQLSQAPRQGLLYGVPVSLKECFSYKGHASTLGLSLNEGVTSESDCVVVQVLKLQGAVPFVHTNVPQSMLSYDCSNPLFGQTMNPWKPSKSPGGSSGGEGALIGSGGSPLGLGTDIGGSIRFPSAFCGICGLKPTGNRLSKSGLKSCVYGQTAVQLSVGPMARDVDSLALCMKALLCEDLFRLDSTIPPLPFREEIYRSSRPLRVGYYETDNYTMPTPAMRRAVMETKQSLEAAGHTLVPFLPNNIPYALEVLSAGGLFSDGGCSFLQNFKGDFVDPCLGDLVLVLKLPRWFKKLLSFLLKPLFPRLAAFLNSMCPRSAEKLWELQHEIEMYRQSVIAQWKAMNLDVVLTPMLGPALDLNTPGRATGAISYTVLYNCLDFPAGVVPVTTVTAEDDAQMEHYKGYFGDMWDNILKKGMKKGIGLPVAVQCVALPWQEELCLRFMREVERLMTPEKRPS

IC50: 2 nM
Structure (SMILES): O=C(CCCCCCc1ccccc1)c1ncc(-c2ccccn2)o1 [compound 2, reference compound]

From patent publication US8987312B2, “Alpha-keto heterocycles as FAAH inhibitors” (The Scripps Research Institute, priority 2008, dated 2015)
